Source: ChEMBL document CHEMBL1127508, “Conformationally restricted competitive antagonists of human/rat corticotropin-releasing factor” (J Med Chem, 1994)

Assays:
[1] = target: T1, Corticotropin-releasing factor receptor 1 (Rattus norvegicus) (UniProt P35353); experiment: Relative antagonistic potency in vitro measuring alteration of CRF-induced release of ACTH by rat anterior pituitary cells in culture; assay type: functional, cell-based; conditions: Pituitary gland cell
T1 sequence (whole entry): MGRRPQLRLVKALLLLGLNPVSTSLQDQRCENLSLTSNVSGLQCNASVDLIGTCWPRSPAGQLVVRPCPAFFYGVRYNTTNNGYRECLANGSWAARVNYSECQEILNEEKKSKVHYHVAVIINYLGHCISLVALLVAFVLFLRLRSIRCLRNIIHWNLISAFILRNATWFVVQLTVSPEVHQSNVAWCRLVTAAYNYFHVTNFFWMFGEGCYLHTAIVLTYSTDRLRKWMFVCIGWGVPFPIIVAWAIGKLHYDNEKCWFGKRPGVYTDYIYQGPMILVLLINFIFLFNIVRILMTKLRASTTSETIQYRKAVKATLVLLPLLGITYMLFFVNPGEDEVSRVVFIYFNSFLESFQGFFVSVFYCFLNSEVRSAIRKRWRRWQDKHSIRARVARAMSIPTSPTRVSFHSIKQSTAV

[2] = target: T1, Corticotropin-releasing factor receptor 1 (Rattus norvegicus); experiment: Intrinsic activity in ACTH release assay as percent CRF response; assay type: functional

Activity [1]: 0.05 | Intrinsic activity [2]: 25
Structure (SMILES): CCCC[C@@H]1NC(=O)[C@@H](NC(=O)[C@H](CC(C)C)NC(=O)[C@@H](NC(=O)[C@H](CCC(=O)O)NC(=O)[C@H](CCCN=C(N)N)NC(=O)[C@H](CC(C)C)NC(=O)[C@H](CC(C)C)NC(=O)[C@H](Cc2c[nH]cn2)NC(=O)[C@H](N)Cc2ccccc2)C(C)C)CCC(=O)NCCCC[C@@H](C(=O)N[C@@H](CCC(N)=O)C(=O)N[C@@H](CC(C)C)C(=O)N[C@@H](C)C(=O)N[C@@H](CCC(N)=O)C(=O)N[C@@H](CCC(N)=O)C(=O)N[C@@H](C)C(=O)N[C@@H](Cc2c[nH]cn2)C(=O)N[C@@H](CO)C(=O)N[C@@H](CC(N)=O)C(=O)N[C@@H](CCCN=C(N)N)C(=O)N[C@@H](CCCCN)C(=O)N[C@@H](CC(C)C)C(=O)N[C@@H](CCCC)C(=O)N[C@@H](CCC(=O)O)C(=O)N[C@H](C(=O)N[C@H](C(=O)C(N)=O)[C@@H](C)CC)[C@@H](C)CC)NC(=O)[C@H](C)NC(=O)[C@H](CCCN=C(N)N)NC(=O)[C@H](C)NC1=O
